This assay relates to C2C12 cells. Put plainly: C2C12 alkaline phosphatase activity assay with soluble affibodies. Particulars: 20 nM BMP-2 alone, 72 hours. In kind it is cell-based, murine. The procedure:
After 72 h, the cells were lysed with Cellytic M (Millipore Sigma), and their ALP activity was quantified and normalized to the total amount of double stranded DNA (dsDNA) present in each well.^88 For the ALP colorimetric assay, 50 μL buffer solution consisting of equal volumes of 1.5 M 2-amino-2methyl-1-propanol solution pH 10.25, 20 mM p-nitrophenyl phosphate solution, and 10 mM MgCl2 hexahydrate solution were mixed with 50 μL of lysed cells and incubated in the dark for 20 minutes before the absorbance of the solutions was read at 405 nm (Synergy Neo2, Biotek). The colorimetric change in the solutions was converted to p-nitrophenol concentration using a calibration curve of 0-0.8 μmol mL^−1 4-nitrophenol solution (Millipore Sigma). The QuantiFluor dsDNA System (Promega) was used for dsDNA quantification.
The ALP activity in each well was normalized to the dsDNA content to account for variability in cell number between samples.
After 72 hours, cells were lysed and their ALP activity was quantified by a colorimetric change caused by the ALP-induced catalysis of p-nitro phenyl phosphate to p-nitrophenol.^88 ALP activity was normalized to the total amount of double-stranded DNA present in each cell culture. Treatment with both uncomplexed and complexed BMP-2 and affibodies was performed to compare the different states in which BMP-2 may be presented in clinical applications. […]

B1: BMP-2: Recombinant human BMP-2 (Medtronic, R&D Systems) (protein)
chain: QAKHKQRKRLKSSCKRHPLYVDFSDVGWNDWIVAPPGYHAFYCHGECPFPLADHLNSTNHAIVQTLVNSVNSKIPKACCVPTELSAISMLYLDENEKVVLKNYQDMVVEGCGCR
Regarding B1, the “normalized ALP activity” value is 37.9 ± 12.5 nmol pNPP μg^−1 dsDNA min^−1.

Values taken from patent US20250382361A1, “AFFIBODIES, HYDROGELS CONTAINING AFFIBODIES, AND USES THEREOF” (University of Oregon, priority 2024, published 2025).
